# Laboratory results published in patent publication US3992528A, “Anti-viral substance containing peptide, fatty acid and carbohydrate moieties” (Research Corporation, priority 1975, dated 1976).
substance,measurement,setting,value
phytostreptin,solubility in methyl ethyl ketone,methyl ethyl ketone,not soluble
same,solubility in water,water,soluble
